Assay results: article PMC3762585 (Chemical & pharmaceutical bulletin, 2012)

Tested on: JMAR
Assay: MTS viability
Settings: Homo sapiens, read-out: Cytotoxicity IC50 JMAR

Work on CC1=C(CO)C(=O)O[C@@H]([C@@H](C)[C@H]2CC[C@H]3[C@@H]4C[C@H]5O[C@]56[C@@H](O)C=CC(=O)[C@]6(C)[C@H]4CC[C@]23C)C1 [Withaferin A 6, withaferin A] yielded an IC50 of 1.5 ± 0.23 µM.
